Reference: ChEMBL document CHEMBL4390672, “Development of Covalent Ligands for G Protein-Coupled Receptors: A Case for the Human Adenosine A3 Receptor” (J Med Chem, 2019)

Protein sequences, listed by entry. Tags and fused reporters are not part of them.
UniProt P0DMS8, whole entry Y265F: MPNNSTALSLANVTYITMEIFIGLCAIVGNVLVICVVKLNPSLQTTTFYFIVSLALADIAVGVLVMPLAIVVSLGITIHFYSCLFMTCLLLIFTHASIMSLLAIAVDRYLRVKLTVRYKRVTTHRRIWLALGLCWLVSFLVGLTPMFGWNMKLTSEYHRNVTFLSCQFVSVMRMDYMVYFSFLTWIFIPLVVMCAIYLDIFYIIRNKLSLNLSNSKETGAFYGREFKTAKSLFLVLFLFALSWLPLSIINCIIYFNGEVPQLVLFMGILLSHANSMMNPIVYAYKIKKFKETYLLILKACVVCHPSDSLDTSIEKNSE
UniProt P0DMS8, whole entry: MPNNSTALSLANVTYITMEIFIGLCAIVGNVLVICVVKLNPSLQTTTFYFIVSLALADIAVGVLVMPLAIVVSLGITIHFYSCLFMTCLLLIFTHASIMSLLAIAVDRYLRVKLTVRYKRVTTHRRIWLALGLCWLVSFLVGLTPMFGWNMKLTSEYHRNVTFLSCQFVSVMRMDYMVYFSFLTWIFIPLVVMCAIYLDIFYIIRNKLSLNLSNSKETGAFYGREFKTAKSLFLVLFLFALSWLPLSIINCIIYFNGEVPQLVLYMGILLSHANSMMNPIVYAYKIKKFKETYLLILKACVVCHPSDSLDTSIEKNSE

Key:
[1] = molecular target: Adenosine receptor A3 (Homo sapiens, UniProt P0DMS8, Y265F); experiment: (§1) Displacement of [3H]PSB11 from human A3 adenosine receptor Y265F (7.36) mutant transiently expressed in CHOK1 cell membranes measured after 2 hrs by scintillation spectrometric method
Method in brief: (§2)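 CHO-K1 cells transfected by PEI (3:1, 20 µg DNA/dish) with WT or Y265F7.36 hA3AR, then given 5 mM sodium butyrate for 24 h before membrane preparation. Membranes incubated with ~10 nM [3H]PSB-11 and competitor for 2 h at 25 °C; filtration and counting; pIC50; three experiments in duplicate.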

[2] = system: Adenosine receptor A3 (Homo sapiens), P0DMS8 [Y265F]; experiment: as §1; method in brief: as §2
[3] = molecular target: T1, Adenosine receptor A2b (Homo sapiens) (UniProt P29275); experiment: Displacement of [3H]PSB-603 from human A2B adenosine receptor expressed in CHO cell membranes at 1 uM measured after 2 hrs by scintillation spectrometric method relative to control
T1 sequence (whole entry): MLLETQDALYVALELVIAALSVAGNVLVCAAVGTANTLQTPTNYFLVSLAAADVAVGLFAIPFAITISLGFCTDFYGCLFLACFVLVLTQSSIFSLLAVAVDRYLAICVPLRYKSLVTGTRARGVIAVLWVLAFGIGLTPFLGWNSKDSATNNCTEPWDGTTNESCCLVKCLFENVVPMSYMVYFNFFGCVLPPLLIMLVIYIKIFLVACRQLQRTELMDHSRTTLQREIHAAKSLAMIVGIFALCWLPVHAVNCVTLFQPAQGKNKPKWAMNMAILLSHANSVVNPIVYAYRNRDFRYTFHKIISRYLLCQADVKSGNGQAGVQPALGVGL
Method in brief: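 Single-point screen at 1 µM test compound against specific [3H]PSB-603 binding to membranes of CHO cells stably expressing hA2BAR, 2 h incubation at 25 °C. Reported as percent displacement from two experiments run in duplicate.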

[4] = molecular target: T2, Adenosine receptor A3 (Homo sapiens, UniProt P0DMS8); experiment: Displacement of [3H]PSB11 from human A3 adenosine receptor transiently expressed in CHOK1 cell membranes measured after 2 hrs by scintillation spectrometric method; method in brief: as §2
[5] = molecular target: T2, Adenosine receptor A3; experiment: Competitive insurmountable antagonist activity at human A3 adenosine receptor expressed in CHO cell membranes assessed as inhibition of 2-Cl-IB-MECA-induced [35S]-GTPgammaS binding measured after 30 mins; type: functional, cell-based; details: read-out: pA2 (converted)

Structure (SMILES): CCCn1c(=O)c2c(nc3cc(OC)ccn32)n(CCCNC(=O)c2ccc(S(=O)(=O)F)cc2)c1=O
- IC50 [1]: 1070 nM
- pIC50(app) [2]: 6
- inhibition [3]: 0%
- IC50 [4]: 27 nM
- pIC50(app) [4]: 7.8
- Kb [5]: 39.8 nM
